Values quoted from earlier work in article PMC11335710, “Sitagliptin elevates plasma and CSF incretin levels following oral administration to nonhuman primates: relevance for neurodegenerative disorders” (GeroScience, 2024).

Test system: DPP-4
Settings: rat, human clinically equivalent doses; cited from earlier work

N[C@@H](CC(=O)N1CCn2c(nnc2C(F)(F)F)C1)Cc1cc(F)c(F)cc1F [sitagliptin]
Inhibition of brain DPP-4 activity: > 20% | Inhibition of plasma DPP-4 activity: > 60%
